The source of these data is patent US20220362278A1, “RENAL TARGETING-TYPE DRUG DELIVERY CARRIER HAVING EXCELLENT BIODEGRABILITY” (priority 2019, published 2022).

A short description of data set [1]: Releasability of serine and biodegradability: PD-10 fractionation of kidney homogenate radioactivity. Particulars: for radioactivity in high / low molecular weight fraction, kidney homogenate: PD-10 column; for release of serine in the kidney: after intravenous administration (3 hr). As to the method: The kidney after blood removal was immediately ice-cooled, purified water (4 mL) was added and homogenized. A saturated potassium chloride solution (1 mL) was added to the prepared kidney homogenate, and the mixture was allowed to stand at 4° C. overnight and then centrifuged. The centrifuged supernatant (1 mL) was developed on a PD-10 column with 0.1 M acetate buffer (pH 6.0), and the radioactivity of the fraction was measured.

For data set [2] the following is noted: 3 hr after intravenous administration, FIG. 2.
For data set [3] the following is noted: 60 min after intravenous administration.
The mark [4] stands for this setting: 3 hr after intravenous administration.

Turning to ^111In-labeled PAMAM(G3), in data set [1] (setting [4]), the “decomposition in the kidney” value is recorded as “hardly decomposed in the kidney” and the “radioactivity in high / low molecular weight fraction, kidney homogenate” value is on record as “mainly on the high molecular weight fraction side”.

As to “^111In-labeled serine-modified poly-L-lysine [^111In-labeled compound (Ia)]”, the “radioactivity in high / low molecular weight fraction, kidney homogenate” value in data set [1] (setting [4]) is listed as “mainly on the low molecular weight fraction side”. Also, the “release of serine in the kidney” value in data set [1] was “rapidly released serine in the kidney”. Further, in data set [2] (15.6 MBq/mouse), the “organ distribution (SPECT/CT images)” value is on record as “specifically accumulated in the kidney”. Besides, the “accumulation site within the kidney (SPECT/CT images)” value in data set [2] is “mainly accumulated in the cortex part where proximal tubules and the like are present”.

For “^111In-labeled serine-modified PAMAM(G3)”, the “radioactivity in high / low molecular weight fraction, kidney homogenate” value in data set [1] (setting [4]) is listed as “mainly on the high molecular weight fraction side, relatively low molecular weight fraction side”. Besides, the “release of serine in the kidney” value in data set [1] is listed as “released almost no serine in the kidney”.

In the case of “FITC-labeled serine-modified poly-L-lysine [FITC-labeled compound (Ia)]”, the “fluorescence in kidney section” value in data set [3] (FIG. 3(A)) is reported as “remarkably high in the renal cortex of renal medulla”. For the same substance, the “distribution in kidney (enlarged image of renal cortex)” value in data set [3] (FIG. 3(B)) is on record as “Strong fluorescence derived from FITC-labeled compound (Ia) was observed in the proximal tubules”.
